Apparent affinities of Ab-14 variants for a coronavirus HR2 peptide

Reference: Engelhart et al. 2022, doi:10.1038/s41597-022-01779-4. File: FLAb, binding data.

Target peptide (SARS-CoV-2 spike, HR2 region): PDVDLGDISGINAS

The variants keep the light chain, the linker and the frameworks of Ab-14 (scFv order VH, three GGGGS repeats, VL).
VH: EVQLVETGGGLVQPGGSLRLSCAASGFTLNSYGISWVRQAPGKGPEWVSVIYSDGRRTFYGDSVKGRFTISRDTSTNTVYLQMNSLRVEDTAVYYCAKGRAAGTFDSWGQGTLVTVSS
VL: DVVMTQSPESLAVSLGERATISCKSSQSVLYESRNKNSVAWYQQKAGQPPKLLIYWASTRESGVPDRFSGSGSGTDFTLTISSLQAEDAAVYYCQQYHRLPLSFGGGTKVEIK

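Phage display of a naive human antibody library on the peptide gave the parent. The library (AAYL49) carries one to three amino acid substitutions per variant, with no insertions or deletions. Affinity was read by AlphaSeq, a pooled yeast mating assay with surface-displayed partners. Pairs that bind mate more often; barcode pairs of the diploids are counted by sequencing. Read counts were normalised to the haploid input and turned into Kd by a linear fit to BCL2-family pairs of known affinity, for each replicate. Each pool was mated in three replicate cultures.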

Changes read parent residue, position, new residue, counted from the first residue of the VH shown.
Affinities are written as log10 Kd with Kd in nM; a lower number is a better binder.
Averages over replicates are reported, and they cover detected replicates only.
A pair that was not seen in that replicate is written "ND"; this usually means weak binding, but a binder can also be missed.

{"changes": "N30F V50S T58R", "replicates, log10 nM": "ND 2.42 ND", "mean, log10 nM": "2.42", "signal with controls": "2 of 9 (3.40)"}
{"changes": "Y32N D54M A102M", "replicates, log10 nM": "ND ND ND", "mean, log10 nM": "ND", "signal with controls": "0 of 9"}
{"changes": "G26Q S35C S107G", "replicates, log10 nM": "ND ND ND", "mean, log10 nM": "ND", "signal with controls": "0 of 9"}
{"changes": "T28K G33H S53A", "replicates, log10 nM": "4.53 3.59 ND", "mean, log10 nM": "4.06", "signal with controls": "2 of 9 (2.99)"}
{"changes": "F27L T28H S53R", "replicates, log10 nM": "ND ND ND", "mean, log10 nM": "ND", "signal with controls": "0 of 9"}
{"changes": "S31Q Y52N D54Q", "replicates, log10 nM": "ND 5.34 ND", "mean, log10 nM": "5.34", "signal with controls": "1 of 9 (4.46)"}
{"changes": "Y52N D54Q D106F", "replicates, log10 nM": "ND ND ND", "mean, log10 nM": "ND", "signal with controls": "0 of 9"}
{"changes": "G26I F27P I51T", "replicates, log10 nM": "ND ND 4.91", "mean, log10 nM": "4.91", "signal with controls": "4 of 9 (3.62)"}
{"changes": "V50M S53T R100A", "replicates, log10 nM": "ND ND ND", "mean, log10 nM": "ND", "signal with controls": "4 of 9 (4.15)"}
{"changes": "T28V K65D", "replicates, log10 nM": "1.32 1.46 1.30", "mean, log10 nM": "1.36", "signal with controls": "0 of 9"}
{"changes": "G33R D54L", "replicates, log10 nM": "ND ND 5.03", "mean, log10 nM": "5.03", "signal with controls": "0 of 9"}
{"changes": "V50Y D54T F59W", "replicates, log10 nM": "5.88 5.53 4.86", "mean, log10 nM": "5.42", "signal with controls": "4 of 9 (4.49)"}
{"changes": "R100V", "replicates, log10 nM": "ND ND ND", "mean, log10 nM": "ND", "signal with controls": "2 of 9 (4.67)"}
{"changes": "I34Y D62H K65R", "replicates, log10 nM": "ND 4.14 ND", "mean, log10 nM": "4.14", "signal with controls": "4 of 9 (4.05)"}
{"changes": "Y32L S63R", "replicates, log10 nM": "3.32 ND 4.35", "mean, log10 nM": "3.84", "signal with controls": "3 of 9 (4.59)"}
{"changes": "G33V V64P T104I", "replicates, log10 nM": "ND ND ND", "mean, log10 nM": "ND", "signal with controls": "0 of 9"}
{"changes": "Y52D G61W G103N", "replicates, log10 nM": "ND ND ND", "mean, log10 nM": "ND", "signal with controls": "0 of 9"}
{"changes": "T28G Y52I D54M", "replicates, log10 nM": "ND ND ND", "mean, log10 nM": "ND", "signal with controls": "2 of 9 (3.43)"}
{"changes": "L29T F105S D106Q", "replicates, log10 nM": "ND 2.99 ND", "mean, log10 nM": "2.99", "signal with controls": "0 of 9"}
{"changes": "V50I Y52S Y60R", "replicates, log10 nM": "4.50 3.77 5.62", "mean, log10 nM": "4.63", "signal with controls": "8 of 9 (4.81)"}
{"changes": "G26I I34C G103V", "replicates, log10 nM": "ND ND ND", "mean, log10 nM": "ND", "signal with controls": "1 of 9 (2.40)"}

The first 2 entries again:

{"changes": "N30F V50S T58R", "replicates, log10 nM": "ND 2.42 ND", "mean, log10 nM": "2.42", "signal with controls": "2 of 9 (3.40)"}
{"changes": "Y32N D54M A102M", "replicates, log10 nM": "ND ND ND", "mean, log10 nM": "ND", "signal with controls": "0 of 9"}

Background: pairings of library AAYL49 with three empty control strains gave a value in 15% of cases (median 4.06, 5th percentile 2.83). Values in that range, when seen in few replicates, are hard to tell from nonspecific mating. Also given: how often the same scFv was detected with the empty control strains, with their mean in brackets.